Reference: ChEMBL document CHEMBL1133485, “3alpha-(4-Substituted phenyl)nortropane-2beta-carboxylic acid methyl esters show selective binding at the norepinephrine transporter” (Bioorg Med Chem Lett, 2000)

Sequences of proteins named here, by UniProt entry; tags and fusion partners are left off.
UniProt P31652, whole entry: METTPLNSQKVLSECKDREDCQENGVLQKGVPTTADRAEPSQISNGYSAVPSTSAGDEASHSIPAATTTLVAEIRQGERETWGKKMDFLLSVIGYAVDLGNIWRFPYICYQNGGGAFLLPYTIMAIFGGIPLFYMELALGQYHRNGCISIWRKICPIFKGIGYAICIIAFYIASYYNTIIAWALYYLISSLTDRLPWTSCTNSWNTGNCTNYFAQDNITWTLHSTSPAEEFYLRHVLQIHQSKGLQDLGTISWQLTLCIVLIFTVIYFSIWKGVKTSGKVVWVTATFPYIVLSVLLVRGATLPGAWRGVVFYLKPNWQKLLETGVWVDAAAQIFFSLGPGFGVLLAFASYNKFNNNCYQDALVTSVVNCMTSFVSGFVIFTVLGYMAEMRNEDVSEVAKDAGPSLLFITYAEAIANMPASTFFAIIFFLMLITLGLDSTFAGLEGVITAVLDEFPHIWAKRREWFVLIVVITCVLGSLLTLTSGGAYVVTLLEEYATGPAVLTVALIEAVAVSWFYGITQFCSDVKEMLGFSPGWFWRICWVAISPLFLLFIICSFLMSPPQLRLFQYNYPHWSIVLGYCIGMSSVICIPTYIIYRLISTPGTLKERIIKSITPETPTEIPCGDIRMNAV

Molecular target: Sodium-dependent serotonin transporter (Rattus norvegicus, UniProt P31652)

`COC(=O)[C@@H]1C2CC[C@@H](C[C@@H]1OC(=O)c1ccccc1)N2C` (single isomer, unassigned) [COCAINE] gave a Ki of 95 nM.
